Laboratory results from US20110105623A1 (Biogenic Innovations, LLC, priority 2009, published 2011).
Where “and” joins values, the source holds several entries; their conditions need not be identical. Identical values can stand only once.

Legend:
[1] = system: Bifidobacterium bifidum ATCC #29521; experiment: Growth in MRS broth + L-cysteine fortified with MSM; settings: 5% MSM; Hour 48
[2] = system: Lactobacillus acidophilus milk; experiment: Growth in simulated gastric acid supplemented with MSM; settings: 5.0% MSM; hour 15 / at maximum
[3] = system: pasture grass mix; experiment: Grass growth and nutrient value with MSM and/or fertilizer; settings: MSM 1:500, dry basis

## Methylsulfonylmethane [MSM]
[1]
  logs lower than the control: 0.7 logs
[2]
  logs higher than the control: 0.45 logs and 0.68 logs
[3]
  Protein Solubility: 59.52%
